# Test results: patent US20180000942A1, “COMPOSITIONS FOR DRUG ADMINISTRATION” (priority 2013, published 2018)
# Details: 25 mg in 0.5% tetradecyl-beta-D-maltoside (Intravail A3), oral and rectal
smiles,measurement,value
CNS(=O)(=O)Cc1ccc2[nH]cc(CCN(C)C)c2c1 [sumatriptan],"Cmax compared to currently available 25 mg oral tablets, in words",increases Cmax
